ChEMBL document CHEMBL4507300, “Data for DCP probe T-26c” (2021)

The chains behind the UniProt entries cited, without tags or fusion partners. Where a name states a change or a piece, a line headed by the entry shows the natural chain unless it says otherwise.
UniProt P11802: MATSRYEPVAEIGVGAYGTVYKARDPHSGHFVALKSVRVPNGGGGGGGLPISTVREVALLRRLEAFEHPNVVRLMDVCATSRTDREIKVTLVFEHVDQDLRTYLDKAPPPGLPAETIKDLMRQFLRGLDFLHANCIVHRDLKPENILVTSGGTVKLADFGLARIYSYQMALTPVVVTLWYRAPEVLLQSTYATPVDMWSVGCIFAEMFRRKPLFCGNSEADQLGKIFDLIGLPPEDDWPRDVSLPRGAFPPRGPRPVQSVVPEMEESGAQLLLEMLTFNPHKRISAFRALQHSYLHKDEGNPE
UniProt Q5S007: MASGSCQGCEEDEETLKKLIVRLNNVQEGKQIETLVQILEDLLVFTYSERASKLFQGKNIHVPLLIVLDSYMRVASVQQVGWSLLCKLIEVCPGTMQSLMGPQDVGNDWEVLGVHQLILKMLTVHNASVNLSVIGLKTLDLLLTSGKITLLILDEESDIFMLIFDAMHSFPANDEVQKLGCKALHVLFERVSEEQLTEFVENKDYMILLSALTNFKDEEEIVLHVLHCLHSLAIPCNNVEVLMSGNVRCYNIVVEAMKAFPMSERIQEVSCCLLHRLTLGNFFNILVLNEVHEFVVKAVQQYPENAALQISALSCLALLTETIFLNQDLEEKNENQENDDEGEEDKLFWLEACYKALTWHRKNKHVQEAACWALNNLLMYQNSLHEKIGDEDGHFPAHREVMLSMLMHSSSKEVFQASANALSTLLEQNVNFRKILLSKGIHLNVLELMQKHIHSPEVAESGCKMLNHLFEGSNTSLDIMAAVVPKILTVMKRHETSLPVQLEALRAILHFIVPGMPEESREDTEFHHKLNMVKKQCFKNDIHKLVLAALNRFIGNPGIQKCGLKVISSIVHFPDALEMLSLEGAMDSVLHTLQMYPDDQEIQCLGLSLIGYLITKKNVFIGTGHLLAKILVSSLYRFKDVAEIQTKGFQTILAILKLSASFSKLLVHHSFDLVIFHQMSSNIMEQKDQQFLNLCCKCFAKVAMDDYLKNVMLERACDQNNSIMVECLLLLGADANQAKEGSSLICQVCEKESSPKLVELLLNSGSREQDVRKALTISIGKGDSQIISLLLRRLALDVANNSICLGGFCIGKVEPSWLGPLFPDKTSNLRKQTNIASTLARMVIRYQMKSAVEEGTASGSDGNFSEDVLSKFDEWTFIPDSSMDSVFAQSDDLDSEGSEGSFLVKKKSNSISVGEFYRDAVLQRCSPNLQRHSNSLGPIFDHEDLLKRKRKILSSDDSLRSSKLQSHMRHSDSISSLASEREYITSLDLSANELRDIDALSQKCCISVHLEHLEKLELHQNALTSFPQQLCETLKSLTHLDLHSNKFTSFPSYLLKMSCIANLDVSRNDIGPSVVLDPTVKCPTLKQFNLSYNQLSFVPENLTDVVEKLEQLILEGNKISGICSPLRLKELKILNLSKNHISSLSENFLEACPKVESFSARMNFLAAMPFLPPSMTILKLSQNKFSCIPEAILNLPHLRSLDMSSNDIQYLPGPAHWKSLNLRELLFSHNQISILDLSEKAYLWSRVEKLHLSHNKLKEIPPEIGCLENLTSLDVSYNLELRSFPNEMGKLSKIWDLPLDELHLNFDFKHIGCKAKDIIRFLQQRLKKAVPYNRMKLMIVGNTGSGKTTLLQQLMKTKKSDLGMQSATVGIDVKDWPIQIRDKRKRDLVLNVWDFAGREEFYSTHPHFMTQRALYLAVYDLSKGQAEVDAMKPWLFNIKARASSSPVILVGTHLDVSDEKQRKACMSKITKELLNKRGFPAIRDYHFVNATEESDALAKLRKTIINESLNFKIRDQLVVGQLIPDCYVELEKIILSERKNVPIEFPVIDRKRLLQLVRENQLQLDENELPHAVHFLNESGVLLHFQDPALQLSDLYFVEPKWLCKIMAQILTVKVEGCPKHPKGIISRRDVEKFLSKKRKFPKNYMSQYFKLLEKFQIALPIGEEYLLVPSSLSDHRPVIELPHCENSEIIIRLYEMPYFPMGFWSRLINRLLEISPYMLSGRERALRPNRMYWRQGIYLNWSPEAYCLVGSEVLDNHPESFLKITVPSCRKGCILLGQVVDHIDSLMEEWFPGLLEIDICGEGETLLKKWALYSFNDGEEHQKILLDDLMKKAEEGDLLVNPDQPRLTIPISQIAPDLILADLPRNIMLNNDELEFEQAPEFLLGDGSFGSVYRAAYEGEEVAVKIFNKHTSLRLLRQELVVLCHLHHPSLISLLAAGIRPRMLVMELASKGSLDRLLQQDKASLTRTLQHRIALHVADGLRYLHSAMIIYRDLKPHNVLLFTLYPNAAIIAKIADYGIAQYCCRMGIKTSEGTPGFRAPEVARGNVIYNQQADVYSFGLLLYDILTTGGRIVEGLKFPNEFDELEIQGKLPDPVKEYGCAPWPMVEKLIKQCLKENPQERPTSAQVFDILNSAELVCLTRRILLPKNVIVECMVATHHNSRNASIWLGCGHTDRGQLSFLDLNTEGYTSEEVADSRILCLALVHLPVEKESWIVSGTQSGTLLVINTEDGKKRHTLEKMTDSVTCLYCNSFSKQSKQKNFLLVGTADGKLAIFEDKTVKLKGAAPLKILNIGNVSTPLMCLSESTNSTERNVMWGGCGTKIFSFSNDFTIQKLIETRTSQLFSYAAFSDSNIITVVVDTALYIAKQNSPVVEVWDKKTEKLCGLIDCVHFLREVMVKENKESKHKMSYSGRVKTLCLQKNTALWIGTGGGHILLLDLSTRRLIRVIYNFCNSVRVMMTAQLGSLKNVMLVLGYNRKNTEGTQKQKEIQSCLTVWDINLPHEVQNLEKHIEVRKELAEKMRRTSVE
UniProt P04629: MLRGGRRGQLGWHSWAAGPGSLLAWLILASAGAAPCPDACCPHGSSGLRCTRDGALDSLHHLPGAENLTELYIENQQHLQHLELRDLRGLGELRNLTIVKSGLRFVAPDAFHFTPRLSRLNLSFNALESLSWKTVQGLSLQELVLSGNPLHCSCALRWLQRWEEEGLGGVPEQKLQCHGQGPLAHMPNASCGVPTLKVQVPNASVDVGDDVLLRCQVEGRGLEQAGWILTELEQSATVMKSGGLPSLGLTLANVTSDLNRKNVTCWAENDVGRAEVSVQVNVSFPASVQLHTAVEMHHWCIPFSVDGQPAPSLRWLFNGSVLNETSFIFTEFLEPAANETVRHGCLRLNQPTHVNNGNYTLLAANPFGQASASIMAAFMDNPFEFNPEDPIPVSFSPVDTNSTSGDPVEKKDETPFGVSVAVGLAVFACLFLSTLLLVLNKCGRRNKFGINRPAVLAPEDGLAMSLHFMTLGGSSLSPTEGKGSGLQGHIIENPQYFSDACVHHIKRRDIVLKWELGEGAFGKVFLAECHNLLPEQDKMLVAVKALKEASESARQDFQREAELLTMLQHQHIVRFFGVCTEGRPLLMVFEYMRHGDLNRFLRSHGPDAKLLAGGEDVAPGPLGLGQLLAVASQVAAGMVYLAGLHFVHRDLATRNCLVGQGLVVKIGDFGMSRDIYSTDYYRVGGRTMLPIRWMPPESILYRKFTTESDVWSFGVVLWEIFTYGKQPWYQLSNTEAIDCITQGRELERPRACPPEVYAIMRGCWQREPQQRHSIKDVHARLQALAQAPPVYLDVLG

Columns and labels:
[1] = target: Collagenase 3 (Bos taurus) (UniProt O77656); details: at 0.1 µM
[2] = target: Cyclin-dependent kinase 4 (Homo sapiens) (UniProt P11802); details: Compound concentration 1000.0 nM
[3] = target: Leucine-rich repeat serine/threonine-protein kinase 2 (Homo sapiens) (UniProt Q5S007); details: Compound concentration 1000.0 nM
[4] = target: High affinity nerve growth factor receptor (Homo sapiens) (UniProt P04629); details: Compound concentration 1000.0 nM
[5] = system: Receptor-type tyrosine-protein kinase FLT3 (Homo sapiens), P36888 [D835V]; details: Compound concentration 1000.0 nM

COc1cccc(CNC(=O)c2nc3scc(COCc4ccc(C(=O)O)cc4)c3c(=O)[nH]2)c1 [T-26c]
active: inhibition [1] 87% | residual activity [2] 43.5% | residual activity [3] 43% | residual activity [4] 46.7% | residual activity [5] 44.2%
